Antibody variant affinities, Ab-14 heavy chain, assay B

The measurements come from Li et al. 2023 (doi:10.1038/s41467-023-39022-2) through the FLAb antibody collection.

Target: peptide PDVDLGDISGINAS, taken from heptad repeat 2 (HR2) of SARS-CoV-2 spike.

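The parent was found by panning a naive human phage display library on the peptide. The variants were designed computationally from a first round of random CDR variants and then made and measured. Their group label is 14H_Ctrl (Ctrl: baseline library sampled from a position-specific scoring matrix, with some repeated check sequences). AlphaSeq pools MATa yeast showing the antibodies with MATalpha yeast showing the peptide. Mating (16 h, 30 °C) was followed by selection of diploids and sequencing of their barcodes. Each replicate has its own calibration line, from reference interactions of the BCL2 family. Each pool was mated in six replicate cultures.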

Ab-14 is the parent antibody, in scFv form: VH, then a (GGGGS)3 linker, then VL. The light chain is unchanged in all variants.
VH: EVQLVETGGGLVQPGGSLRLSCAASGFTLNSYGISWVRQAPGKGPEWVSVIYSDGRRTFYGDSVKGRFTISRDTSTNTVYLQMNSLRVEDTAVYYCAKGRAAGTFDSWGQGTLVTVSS
VL: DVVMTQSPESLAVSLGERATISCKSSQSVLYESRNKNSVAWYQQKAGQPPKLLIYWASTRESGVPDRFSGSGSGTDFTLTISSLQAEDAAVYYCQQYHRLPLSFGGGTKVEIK

Changes read parent residue, position, new residue, counted from the first residue of the VH shown. The read-out is the apparent dissociation constant on a log10 scale (nM): the lower, the stronger. Where no diploid with the target was found in that replicate, the entry reads "nd": below detection, most likely a poor binder, though not proof of it. The range of this assay differs from that of the first round, and the authors advise against merging the two.

For T28N+S31Q+S53R+A102G+T104Y, the assay gave nd, nd, nd, nd, nd, nd (controls 0 of 18).
For S53A+G61T, the assay gave 0.75, 0.29, 0.12, 0.18, 0.50, 0.30 (controls 1 of 18).
For S31E+S53F+A102Q, the assay gave nd, nd, 4.15, nd, nd, nd (controls 1 of 18).
For I34V+V64T+R100A+G103L+D106S, the assay gave nd, nd, nd, nd, nd, nd (controls 0 of 18).
For T28S+R56Q+F59G+G61N+R100T+G103L, the assay gave nd, nd, nd, nd, nd, nd (controls 0 of 18).
For A101L+G103A, the assay gave nd, nd, nd, nd, nd, nd (controls 0 of 18).
For R56H+F59M+A101L, the assay gave nd, 1.26, nd, nd, nd, nd (controls 0 of 18).
For T28M+G61E+V64Q, the assay gave nd, nd, nd, nd, nd, nd (controls 0 of 18).
For R56L+S63K+D106E, the assay gave nd, nd, nd, nd, 1.64, nd (controls 0 of 18).
For T28M+K65R+G103V, the assay gave nd, nd, nd, nd, nd, nd (controls 0 of 18).
For I51M+G61S+R100Q, the assay gave 0.87, 0.80, 0.48, 1.88, 1.39, 0.32 (controls 0 of 18).
For S63D+S107W, the assay gave 0.88, 1.19, nd, nd, 2.53, 1.63 (controls 0 of 18).
For R56V+R100W+A101T+T104R, the assay gave nd, nd, nd, nd, nd, nd (controls 0 of 18).
For S63N+R100D+G103I+D106K, the assay gave nd, nd, nd, nd, nd, nd (controls 0 of 18).
For S31D+F59S+R100G, the assay gave 0.46, 0.28, 0.39, 0.07, 0.30, 0.46 (controls 0 of 18).
For T28P+S63D, the assay gave nd, nd, nd, nd, nd, nd (controls 0 of 18).
For T28D+N30E+G61S+R100N, the assay gave 0.21, 0.53, 0.28, 0.07, 0.35, 0.99 (controls 2 of 18).
For G99V+R100K+A101H, the assay gave nd, 1.89, nd, nd, nd, nd (controls 0 of 18).
For T28D+D106F+S107D, the assay gave nd, nd, nd, nd, nd, nd (controls 0 of 18).
For S53A+T104S, the assay gave 0.95, 1.33, 1.22, 0.98, 1.36, 1.74 (controls 0 of 18).
For Y60M+V64F, the assay gave nd, nd, nd, nd, nd, nd (controls 0 of 18).
For T28N+A102S+D106E, the assay gave nd, 1.49, nd, nd, nd, nd (controls 0 of 18).
For S31E+A102Y+G103W, the assay gave nd, nd, nd, nd, nd, nd (controls 0 of 18).
For S31Q+F59M, the assay gave -0.05, nd, nd, -0.19, nd, nd (controls 0 of 18).
For G26M+R100T+F105G, the assay gave nd, nd, nd, nd, nd, nd (controls 0 of 18).
For N30E+G61I+G99R+D106R, the assay gave nd, nd, nd, nd, nd, nd (controls 0 of 18).
For T28W+G61Q+R100A, the assay gave nd, nd, nd, nd, nd, nd (controls 0 of 18).
For F27E+R100E, the assay gave nd, nd, 1.81, 2.09, 2.15, nd (controls 0 of 18).
For S31K+R56F+A102H+D106C, the assay gave nd, nd, nd, nd, nd, nd (controls 0 of 18).
For R100D+T104S+S107D, the assay gave nd, nd, nd, nd, nd, nd (controls 0 of 18).
For G61V+S63R+A102G+S107V, the assay gave nd, nd, nd, nd, nd, nd (controls 1 of 18).
For S31W+G61D+F105G, the assay gave nd, nd, nd, nd, nd, nd (controls 0 of 18).
For T28H+S31E+I34R+R100K+A102K+T104C, the assay gave nd, nd, nd, nd, nd, nd (controls 0 of 18).
For T28H+R56H+A101L+T104A, the assay gave nd, nd, nd, nd, nd, nd (controls 0 of 18).
For F59A+A101I+D106C, the assay gave nd, nd, nd, nd, nd, nd (controls 0 of 18).
For T28K+R56I, the assay gave 1.15, 1.94, 1.99, 1.52, nd, 1.86 (controls 1 of 18).
For F27E+L29I+G61L+R100F+F105W, the assay gave nd, nd, nd, nd, nd, nd (controls 0 of 18).
For A101W+D106K+S107R, the assay gave 0.64, -0.61, 0.49, 0.19, -0.13, 0.99 (controls 0 of 18).
For S31E+R100T+A101V+F105A, the assay gave 1.76, nd, nd, nd, 1.40, 1.46 (controls 0 of 18).
For T28S+S31E+F105D+S107D, the assay gave nd, nd, nd, nd, nd, nd (controls 2 of 18).
For S31N+R56Q+D106V, the assay gave nd, nd, nd, nd, nd, nd (controls 0 of 18).
For T28W+D54F+R100G+A102K+G103D, the assay gave nd, nd, nd, nd, nd, nd (controls 0 of 18).
For G61H+A102D+F105N+D106W, the assay gave nd, nd, nd, nd, nd, nd (controls 0 of 18).
For G61K+A102T+T104F+S107W, the assay gave nd, nd, nd, nd, nd, nd (controls 0 of 18).
For T28S+G103T+S107T, the assay gave nd, nd, nd, nd, nd, nd (controls 0 of 18).
For F27D+T28D+G61S+V64W+G99N+F105V+D106S, the assay gave nd, nd, nd, nd, nd, nd (controls 0 of 18).

The parent sequence was in this pool as ten entries: three were never detected, three once, and four in most replicates, with averages from 0.34 to 2.37. As a blank, each scFv also met three strains without target: over all heavy chain designs, 1% of these pairings were detected, typically at 2.08 and seldom below 0.84. The control count says in how many pairings with the empty strains this scFv gave a signal. The authors' rule: three or more of the six replicates give a measured affinity, fewer mean a poor binder.